In patent publication US20050239864A1, “Novel tumor-selective chemotherapeutic agents” (priority 2004, published 2005):
Like-named read-outs stand apart in the source and are kept apart here.

Legend:
[1] = cited from earlier work
human tumor xenografts = human tumor xenografts s.c. in nude mice; cited from earlier work
[2] = tested on: metastatic renal cell carcinoma; conditions: 17 patients, 50 mg/m^2 once a week i.v.; cited from earlier work
[3] = tested on: malignant mesothelioma of the pleura or peritoneum; conditions: cited from earlier work
Walker-256 carcinoma [4] = test: Radio-labelled MTX-HSA concentration in tumor tissue; assay type: in vivo, rats; conditions: approximate conversion
Method: The concentration of MTX-HSA in tumor tissue was measured using radio-labelled MTX-HSA. MTX-HSA was given to female rates bearing the Walker-256 carcinoma at a dose of 13.2 μmol/kg MTX-HSA, which corresponds to 6 mg/kg of MTX (Wosikowski et al., Clin. Cancer Res. 2003, 9, 1917-1926). At 1 h after administration, the MTX-HSA concentration measured was 25 nmol/g tumor tissue, which is approximately 25 μM. At 3 h, the concentration in the tumor reached its maximum (29 nmol/g tumor tissue), which is approximately 29 μM. At 8 and 48 h, 19 μM and 18 μM of MTX-HSA, respectively, were measured.

Walker-256 carcinoma [5] = conditions: cited from earlier work
[6] = 23/29 patients assessed after 8-12 weeks
[7] = weekly i.v. infusion of 50 mg/m^2

In the case of MTX-HSA, the “patients with tumor responses” value ([1]; Phase I, 17 patients) is listed as “three”, the “tolerability” value ([1]; Phase I, 17 patients) is listed as “well tolerated” and the “response duration, minor response” value ([1]; one patient with pleural mesothelioma, ongoing) is listed as 31 months. The “response duration, partial response” value ([1]; one patient with renal cell carcinoma, ongoing) was 30 months, the “response duration, minor response” value ([1]; one patient with renal cell carcinoma, until progression) was 14 months and the “antitumor activity in vivo” value (human tumor xenografts) was “dose-dependent antitumor activity”. The “duration of stable disease” value [2] was “up to 8 months”, the “median duration of stable disease” value [2] was 121 days and the “objective responses” value [2] was “no objective responses were seen”. For the same substance, the “patients with stable disease (stabilization>2 months)” value [2] was “Eight”, the “patients with MR (minor response)” value [3, 6] was 1 and the “patients with NC>3 month” value [3, 6] was 11. The “patients with PR” value [3, 6] was 1, the “patients with early disease progression within the first 2 months” value [3, 6] was 6 and the “time to progression, mean” value ([3]; weekly 50 mg/m^2) was 3.5 months. The “time to progression, median” value ([3]; weekly 50 mg/m^2) was 4.3 months, the “tolerability” value ([3]; weekly 50 mg/m^2) was “generally well tolerated” and the “grade 3 stomatitis” value [3, 7] was 10%. The “grade 3 thrombopenia” value [3, 7] was 2%, the “grade 4 stomatitis” value [3, 7] was 2% and the “grade 4 thrombopenia” value [3, 7] was 12%. The “MTX-HSA concentration in tumor tissue” value (Walker-256 carcinoma [4]; 1 h after 13.2 μmol/kg MTX-HSA) was “approximately 25 μM”, the “MTX-HSA concentration in tumor tissue (maximum)” value (Walker-256 carcinoma [4]; 3 h after 13.2 μmol/kg MTX-HSA) was “approximately 29 μM” and the “MTX-HSA concentration in tumor tissue” value (Walker-256 carcinoma [5]; 1 h after 13.2 μmol/kg MTX-HSA) was 25 nmol/g tumor tissue. For the same substance, the “MTX-HSA concentration in tumor tissue (maximum)” value (Walker-256 carcinoma [5]; 3 h after 13.2 μmol/kg MTX-HSA) was 29 nmol/g tumor tissue.
